Experimental data: patent publication US10052318B2, “Glutamate agents in the treatment of mental disorders” (YALE UNIVERSITY, priority 2005, dated 2018)
Several values for one entry are separate records, joined by “and”; a condition that tells them apart may be missing. Equal values may be shown once. Read-outs that look alike come from different tables or passages of the source.

Key:
[1] = system: patients with serotonin reuptake inhibitor-resistant obsessive-compulsive disorder
[2] = system: patients treated with riluzole; conditions: Aventis 2004; cited from earlier work

Nc1nc2ccc(OC(F)(F)F)cc2s1 [Riluzole, riluzole]
HAM-D scores for the entire group over time ([1]; F1,10.8=9.12, p=0.012): improved significantly | Y-BOCS scores over time ([1]; F1,11.1=19.78, p=0.001): improved significantly | patients with asymptomatic, transient increases in at least one LFT ([1]; LFT at baseline and every three weeks): four of thirteen | Mean ALT ([1]; baseline): 22.9 (±12.3) | Mean Alk Phos ([1]; baseline): 75 (±13.5) | overall reduction in mean Y-BOCS for the entire cohort ([1]; baseline to end of study): 42% | patients categorized as treatment responders ([1]; five of thirteen, 35% or greater reduction in baseline Y-BOCS, final Y-BOCS of 16 or less, clinician consensus): 39% | Mean HAM-A at end of study ([1]; group of 13 patients, end of study): 12 (±2.5) | increase in ALT in one patient ([1]; one patient, asymptomatic): exceeded nine times normal | CGI Treatment Response ([1]; one table line per patient, riluzole 50 mg twice a day added to SRI, study duration 6, 9 or 12 weeks): 3 (3×) and 4 and 2 | Post HAM-A Score ([1]; per patient, after riluzole 50 mg twice a day added to SRI, 6-12 weeks, * = >35% reduction): 3 | Mean ALT ([1]; week six): 35.3 (±28.3) | Mean AST ([1]; week six): 22 (±13.84) | Mean Alk Phos ([1]; week six): 83.7 (±24.4) | patients experiencing LFT elevations greater than five times the upper limit of normal [2]: approximately 2% | patients experiencing elevations in at least one LFT measure [2]: more than 50%
